The assay has as its system double-stranded oligo probe (DNA). Nature of the assay: High-throughput screen of a compound library with the linear oligo probe (FRET ratio, 384 well plate). It counts as binding. The following applies: Cy5/Cy3 intensity, library peak ˜1.1, a small ratio indicates intercalation.

The results in this text go back to patent US11242555B2, “Molecular sensors and uses thereof” (New York University, priority 2018, dated 2022).

Only a part of the results on these compounds is given; other tests are left out.

For SODIUM NITROPRUSSIDE, the FRET ratio is given as 0.09876.
